Patent US20170007561A1, “CONTEMPORANEOUS, HETEROGENEOUSLY-ORIENTED, MULTI-TARGETED THERAPEUTIC MODIFICATION AND/OR MODULATION OF DISEASE BY ADMINISTRATION OF SULFUR-CONTAINING, AMINO ACID-SPECIFIC SMALL MOLECULES” (BioNumerik Pharmaceuticals, Inc., priority 2014, published 2017)

The chains behind the UniProt entries cited, without tags or fusion partners. Residues count along the entry.
UniProt P08922, 1883-2347: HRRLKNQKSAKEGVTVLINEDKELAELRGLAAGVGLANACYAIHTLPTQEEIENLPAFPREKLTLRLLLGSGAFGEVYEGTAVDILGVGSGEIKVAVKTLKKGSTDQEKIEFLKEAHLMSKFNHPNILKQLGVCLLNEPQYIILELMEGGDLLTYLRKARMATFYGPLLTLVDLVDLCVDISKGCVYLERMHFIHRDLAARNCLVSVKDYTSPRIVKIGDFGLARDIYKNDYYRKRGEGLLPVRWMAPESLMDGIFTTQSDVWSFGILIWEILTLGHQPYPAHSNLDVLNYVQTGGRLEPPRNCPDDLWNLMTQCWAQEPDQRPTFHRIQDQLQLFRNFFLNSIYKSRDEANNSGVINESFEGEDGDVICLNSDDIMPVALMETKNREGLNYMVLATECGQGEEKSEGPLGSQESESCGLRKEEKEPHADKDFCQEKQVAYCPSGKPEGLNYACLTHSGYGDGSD

What was measured:
[1] = biological target: Recombinant human ROS1 kinase (residues 1883-2347) (Homo sapiens, UniProt P08922)
recombinant human Trx = biological target: T1, recombinant human Trx (Homo sapiens, UniProt P10599); settings: 10 mM, 37° C., 4 to 6 hours
T1 sequence (P10599 1-105): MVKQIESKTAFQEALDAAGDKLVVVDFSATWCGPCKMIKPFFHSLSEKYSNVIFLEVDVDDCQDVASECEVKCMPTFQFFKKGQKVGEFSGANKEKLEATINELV

| Structure (SMILES) | effect on ROS1 kinase activity ([1]; ROS1 incubated with Tavocept 3 hours or 24 hours prior to addition of ATP and polyGT) | effect on crizotinib-mediated inhibition of ROS1 kinase activity ([1]; Tavocept incubated with ROS1 for 3 or 24 hours prior to crizotinib, ATP and polyGT, 100 μM ATP, listed as BNP7787) | Adduct on Trx identified by LC MS (recombinant human Trx) |
| --- | --- | --- | --- |
| O=S(=O)([O-])CCSSCCS(=O)(=O)[O-].[Na+].[Na+] [Tavocept, disodium 2,2′-dithio-bis-ethane sulfonate] | time-dependent loss of activity | additive effect |  |
| N[C@@H](CCC(=O)N[C@@H](CS)C(=O)NCC(=O)O)C(=O)O [glutathione, γ-glutamyl-cysteinyl-glycine, reference compound] |  |  | glutathionylated at cysteine-73 (Cys73) |
| O=S(=O)([O-])CCS.[Na+] [mesna, 2-mercapto ethane sulfonate] |  |  | mesna adduct on Cys73 of Trx |
